Data: PubChem BioAssay AID1645887 (National Center for Advancing Translational Sciences (NCATS), 2021)
Several values for one entry are separate records, joined by “and”; a condition that tells them apart may be missing. Equal values may be shown once. The list shows a part of the results, in another mix than the full data. Activity calls are given as the source filed them. Calls come from the whole dose curve; as a rule, active = well fitted activation curve with a large enough effect; inconclusive = small, poorly fitted or top-dose-only effect, or another doubt; inactive = no such curve, though single readings can be large or run the other way.
% is set by controls: 0 for no effect and ±100 for the full control effect.
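Note: exchange makes BODIPY-GDP fluorescence drop when released from Rap1B; series mostly up to about 150 µM.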

Chains of the proteins cited; added tags and fusions are not shown.
UniProt Q8WZA2, whole entry: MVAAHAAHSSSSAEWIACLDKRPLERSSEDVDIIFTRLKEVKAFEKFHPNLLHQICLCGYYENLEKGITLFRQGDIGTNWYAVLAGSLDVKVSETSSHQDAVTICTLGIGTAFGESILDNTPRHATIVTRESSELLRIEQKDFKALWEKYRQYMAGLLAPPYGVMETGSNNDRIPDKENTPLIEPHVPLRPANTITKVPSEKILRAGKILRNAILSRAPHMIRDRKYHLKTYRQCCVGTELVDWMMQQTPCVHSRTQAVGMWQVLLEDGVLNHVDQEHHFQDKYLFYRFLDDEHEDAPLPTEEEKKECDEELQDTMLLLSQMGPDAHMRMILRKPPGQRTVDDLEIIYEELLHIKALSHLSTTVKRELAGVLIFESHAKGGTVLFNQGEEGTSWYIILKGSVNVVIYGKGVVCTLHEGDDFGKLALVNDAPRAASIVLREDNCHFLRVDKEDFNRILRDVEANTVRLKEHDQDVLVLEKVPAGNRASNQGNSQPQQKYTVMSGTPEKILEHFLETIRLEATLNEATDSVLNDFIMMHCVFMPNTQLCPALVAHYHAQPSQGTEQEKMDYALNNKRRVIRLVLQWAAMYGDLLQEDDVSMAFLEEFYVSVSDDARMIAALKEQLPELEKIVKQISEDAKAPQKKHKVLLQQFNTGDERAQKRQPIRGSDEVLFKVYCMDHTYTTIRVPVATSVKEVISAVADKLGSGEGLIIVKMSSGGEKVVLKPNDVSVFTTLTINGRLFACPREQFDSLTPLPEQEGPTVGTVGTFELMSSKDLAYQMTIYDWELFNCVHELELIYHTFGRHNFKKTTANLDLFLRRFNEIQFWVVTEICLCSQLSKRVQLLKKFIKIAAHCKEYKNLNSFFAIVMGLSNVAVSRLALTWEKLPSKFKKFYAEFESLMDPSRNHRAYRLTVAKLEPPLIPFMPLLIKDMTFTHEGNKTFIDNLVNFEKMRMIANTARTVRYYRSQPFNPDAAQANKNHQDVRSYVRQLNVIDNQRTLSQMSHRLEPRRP

The compounds below were run against Rap guanine nucleotide exchange factor 4 (Homo sapiens) (UniProt Q8WZA2) (assay: Validation qHTS for agonist of cAMP-regulated guanine nucleotide exchange factor 4 (EPAC2)). Details: EPAC2 Rap1B BODIPY-GDP exchange, fluorescence; stronger effect = higher value.
Source text: Principle Investigator: Xiaodong Cheng Ph.D.
The University of Texas Medical Branch, […], TX
In multi-cellular eukaryotic organisms, the effects of cAMP are transduced by two ubiquitously-expressed intracellular cAMP receptors, the classic protein kinase A/cAMP-dependent protein kinase (PKA/cAPK) and the more recently discovered exchange protein directly activated by cAMP/cAMP-regulated guanine nucleotide exchange factor (EPAC/cAMP-GEF). Both PKA and EPAC are ubiquitously expressed in all tissues, and an increase in intracellular cAMP levels will lead to the activation of both PKA and EPAC. Therefore, careful dissections of the individual role and relative contribution of EPAC and PKA within the overall cAMP signaling in various model systems are critical for further elucidating the mechanism of cAMP signaling. To date no EPAC-specific antagonists and agonist, as well as isoform-specific agonists have been reported, and developing EPAC-specific pharmacological probes to determine the physiological functions that EPAC play in the overall cAMP-mediated signaling remains a major challenge within the research field. Furthermore, identified regulators of EPAC may lead to new mechanism-based therapeutic strategies specifically targeting the EPAC / cAMP-signaling components as EPAC has been implicated to play important roles in major human pathological conditions such as diabetes, heart disease, and cancer.
This qHTS will be used to screen the Molecular Libraries Small Molecule Repository (MLSMR) as a concentration-titration series using the NCGC unique quantitative screening (qHTS) platform to find activators for EPAC1. In addition, this assay will also be used as a counterscreen for the EPAC2 qHTS. This fluorescent based assay is developed and validated for EPAC1 that measures exchange using EPAC effector Rap1 complex with BODIPY-GDP, a GDP analog with a tethered fluorophores. Activators are identified by monitoring the change in fluorescence signal as the exchanged free BODIPY-GDP has a reduced fluorescence compared to Rap1-bound BODIPY-GDP. Increase in signal (activation) is the desired outcome for the EPAC1 agonist while no activity in this assay is desired for the EPAC2 agonist counterscreen.
[1] de Rooij, J., Zwartkruis, F. J., Verheijen, M. H., Cool, R. H., Nijman, S. M., Wittinghofer, A., and Bos, J.L. (1998) Nature 396, 474-477.
Briefly, three uL of reagents (100 nM EPAC2, 250 nM RAP1B-BODIPY-GDP, 50 uM GDP) were dispensed into a 1536-well Greiner black solid-bottom medium binding assay plate. Controls and test compounds (23 nL) were transferred to the plate via a Kalypsys pin tool equipped with a 1536-pin array. The plates were centrifuged at 1,000 rpm for 15 seconds followed by 5 minute incubation at room temperature. The assay plates were read at 5 minute intervals for 30 minutes in the ViewLux plate reader using 480nm excitation and 540nm emission filters. The results were normalized to the agonist positive control of 6.5 mM cAMP.
With `OCCSCCO` the activation was inactive: 10.1%. `CC(C)OP(=O)(F)OC(C)C` was tested, and the activation was inactive: -3.49%. With `CCOP(=O)(CC)Oc1ccc([N+](=O)[O-])cc1` (stereo unspecified) the activation was inactive: -16%. For `Cc1cccc([N+](=O)[O-])c1[N+](=O)[O-]`, the activation was inactive: -17.5%. In the case of `C/C1=C2N=C(/C=C3N=C(/C(C)=C4\[N-][C@@](C)([C@@H]5N=C1[C@](C)(CCC(=O)NC[C@@H](C)OP(=O)([O-])O[C@H]1[C@@H](O)[C@@H](n6cnc7cc(C)c(C)cc76)O[C@@H]1CO)[C@H]5CC(N)=O)[C@@](C)(CC(N)=O)[C@@H]4CCC(N)=O)[C@@](C)(CC(N)=O)[C@@H]\3CCC(N)=O)C(C)(C)[C@@H]/2CCC(N)=O.[C-]#N.[Co+3]`, the activation is reported as inactive: 7.5%. `CCN(CCCl)Cc1ccccc1C` was tested, and the activation was inactive: -14.2%. For `CC(C)N(CCCl)C(C)C`, the activation was inactive: 5.45%. For `O=[N+]([O-])c1cccc([N+](=O)[O-])c1`, the activation was inactive: 9.84% and inactive: -15.7%. With `O=[N+]([O-])OCC(CO[N+](=O)[O-])(CO[N+](=O)[O-])CO[N+](=O)[O-]` the activation was inactive: 15%. For `O=[N+]([O-])[O-].[NH4+]`, the activation was inactive: 4.93%. With `CN(C)CCS` the activation was inactive: -13.6%.
